The text below walks through data of PubChem BioAssay AID588627 (Johns Hopkins Ion Channel Center, 2011).

Chains of the proteins cited; added tags and fusions are not shown.
UniProt Q96LB2, whole entry: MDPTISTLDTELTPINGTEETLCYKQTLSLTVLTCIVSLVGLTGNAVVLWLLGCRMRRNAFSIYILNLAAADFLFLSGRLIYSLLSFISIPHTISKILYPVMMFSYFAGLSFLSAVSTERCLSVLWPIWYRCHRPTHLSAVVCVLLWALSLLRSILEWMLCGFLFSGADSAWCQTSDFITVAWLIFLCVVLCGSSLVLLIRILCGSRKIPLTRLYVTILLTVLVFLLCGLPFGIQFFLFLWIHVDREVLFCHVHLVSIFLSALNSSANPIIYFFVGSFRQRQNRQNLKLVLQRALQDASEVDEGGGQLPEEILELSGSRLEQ

Only a part is listed here, and it is no random draw. Activity calls are given as the source filed them.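 Rule for the calls: active = calcium response B-score plate-corrected fluorescence ratio at least 3 library SD, with starting fluorescence B-score inside 5 SD; inactive = the rest.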

The test addresses Mas-related G-protein coupled receptor member X1 (Homo sapiens) (UniProt Q96LB2). The test can be described thus: agonists of human MrgX1 receptor, primary screen, HEK293 cells, Fluo-4 calcium flux (AID 588627). As to conditions: Fluo-4 calcium fluorescence, agonist mode, at 10 µM. The essentials: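 Assay system: MrgX1-expressing HEK293 cells / Amount: fifteen thousand cells per well / Doses: test compound in the initial addition of three / Timing: cells plated overnight, dye loaded 0.5 h 37 °C, 0.5 h room temperature / Technique: kinetic calcium dye fluorescence, Fluo-4 NW / Control set: positive and negative controls per plate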
Background: Calcium assays in cells follow changes in intracellular calcium, usually with a dye or a luminescent sensor.
Take `CCN1CCC(Nc2cccc(F)c2)CC1`: the outcome was inactive.
For `CN(C)c1ccc(C(=O)NCC2(N3CCCCC3)CCCCC2)cc1`, the outcome was inactive.
For `COc1cc(OC)cc(C(=O)NCC2(N3CCCCC3)CCCCC2)c1`, the outcome was inactive.
On to `Cc1ccc(C(=O)NCC2(N3CCCCC3)CCCCC2)o1`, for which the result was inactive.
Regarding `Fc1ccccc1NC1CCN(Cc2ccccc2)CC1`, the result was inactive.
Regarding `CCC(CO)(C(=O)OC1CN2CCC1CC2)c1ccccc1` (centres undefined), the outcome was inactive.
The same measure for `COc1cccc(C(=O)N(c2cc(C)cc(C)c2)C2CCN(C(=O)OC(C)(C)C)CC2)c1`: “inactive”; for `COc1cc(OC)cc(C(=O)NCC2(N3CCOCC3)CCCCC2)c1`: “inactive”.
In the case of `CCCOc1ccc(C)cc1CN(CCCl)CCCl`, the result was inactive.
`CN1CCC(Nc2ccc(Cl)cc2)CC1`: the outcome was inactive.
Take `CCOc1ncccc1C(=O)NCC1(N2CCOCC2)CCCCC1`: the result was inactive.
Take `CN1CCC(Nc2ccc(F)c(Cl)c2)CC1`: the outcome was inactive.
Turning to `CCCOc1ccc(C(=O)NCC2(N(C)C)CCCCC2)cc1`, the outcome was inactive.
In the case of `CC(C)(C)OC(=O)N1CCC(Nc2ccccc2)CC1`, the outcome was inactive.
The same measure for `O=C(O)C1(Nc2ccccc2)CCN(Cc2ccccc2)CC1`: “inactive”; for `N/C(=N\O)c1c(N)no[n+]1[O-]`: “inactive”.
For `CCOC(=O)N1CCC(Nc2ccc(C)cc2)CC1`, the result was inactive.
`O=C(OC1CN2CCC1CC2)C1c2ccccc2C=Cc2ccccc21` (centres undefined): the outcome was inactive.
For the molecule `CCc1cc(C(=O)NCC2(N3CCCCC3)CCCCC2)sc1C`, the outcome was inactive.
The same measure for `COc1ccc(C(=O)NCC2(N3CCOCC3)CCCCC2)cc1OC`: “inactive”; for `c1ccc(CN2CCC(Nc3ccccc3)CC2)cc1`: “inactive”; for `CCCN1CCC(Nc2cc(OC)cc(OC)c2)CC1`: “inactive”.
For the molecule `CN(C)C1(CNC(=O)c2cccc(C#N)c2)CCCCC1`, the outcome was inactive.
For `CC(C)(C)OC(=O)N1CCC(N(C(=O)c2ccccc2)c2ccc(Cl)cc2)CC1`, the result was inactive.
With `N#Cc1ccc(C(=O)NCC2(N3CCCCC3)CCCCC2)cc1`, the outcome was inactive.
Consider `O=C(NCC1(N2CCCCC2)CCCCC1)c1cccc(C(F)(F)F)c1`, for which the result was inactive.
For `COc1ccc(NC2CCN(C(=O)OC(C)(C)C)CC2)cc1`, the result was inactive.
For `CN1CCN(CCOC(=O)C(O)(c2ccccc2)c2ccccc2)CC1` the value was “inactive”.
Consider `O=C(NCC1(N2CCOCC2)CCCCC1)c1cc(=O)[nH]c2ccccc12`, for which the outcome was inactive.
In the case of `COc1cc(C(=O)NCC2(N3CCCCC3)CCCCC2)ccc1OC(F)F`, the outcome was inactive.
With `O=C(NCC1(N2CCCCC2)CCCCC1)c1ccc(OC(F)F)cc1`, the result was inactive.
For `O=C(NCC1(N2CCCCC2)CCCCC1)c1cccc([N+](=O)[O-])c1` the value was “inactive”.
For `CCN1CCC(Nc2ccc(Cl)cc2)CC1`, the outcome was inactive.
As to `N#CC1(Nc2ccccc2)CCN(CCc2ccccc2)CC1`, the result was inactive.
For the molecule `CN1CCC(Nc2cccc(F)c2)CC1`, the outcome was inactive.
`CCCOc1ccc(C(=O)NCC2(N(C)C)CCCCC2)cc1OC`: the result was inactive.
Take `COc1ccc(CN(CCCl)CCCl)cc1Cl`: the result was inactive.
In the case of `CN(C)c1cccc(C(=O)NCC2(N3CCCCC3)CCCCC2)c1`, the outcome was inactive.
As to `CC(C)c1ccc(NC2CCN(C(=O)OC(C)(C)C)CC2)cc1`, the result was inactive.
`COc1cc(OC)c(C(=O)NCC2(N(C)C)CCCCC2)cc1OC`: the result was inactive.
As for `O=C(NCC1(N2CCOCC2)CCCCC1)c1cc2ccccc2o1`, the result was inactive.
As for `O=C(NCC1(N2CCCCC2)CCCCC1)c1ccc(Cl)nc1`, the outcome was inactive.
For `Cc1cc(C)cc(N(C(=O)c2ccccc2)C2CCN(C(=O)OC(C)(C)C)CC2)c1` the value was “inactive”; for `CCOC(=O)N1CCC(Nc2ccc(OC)cc2)CC1`, “inactive”; for `O=C(OC1CN2CCC1CC2)C1c2ccccc2Oc2ccccc21` (centres undefined), “inactive”.
For the molecule `N#CC1(Nc2ccccc2)CCN(Cc2ccccc2)CC1`, the outcome was inactive.
`O=C(NCC1(N2CCCCC2)CCCCC1)c1ccc(=O)[nH]c1`: the outcome was inactive.
The same measure for `O=C(NCC1(N2CCCCC2)CCCCC1)c1cccs1`: “inactive”; for `COc1ccc(C(=O)NCC2(N3CCCCC3)CCCCC2)cc1`: “inactive”.
Turning to `CC(C)(C)OC(=O)N1CCC(N(C(=O)c2ccccc2)c2ccc(F)cc2)CC1`, the result was inactive.
For `COc1ccc(C(=O)NCC2(N3CCCCC3)CCCCC2)c(OC)c1OC` the value was “inactive”; for `CSc1ccccc1C(=O)NCC1(N2CCCCC2)CCCCC1`, “inactive”; for `COc1cc(C(=O)NCC2(N(C)C)CCCCC2)ccc1OC(F)F`, “inactive”.
Take `CCOC(=O)N1CCC(Nc2cccc(C)c2)CC1`: the outcome was inactive.
With `Cc1ccc(OCC(C)C)c(CN(CCCl)CCCl)c1`, the result was inactive.
As to `CCOc1ccc(C)cc1CN(CCCl)CCCl`, the result was inactive.
For `O=C(NCC1(N2CCCCC2)CCCCC1)c1ccc(F)cc1` the value was “inactive”; for `CCOC(=O)N1CCC(Nc2ccc(F)cc2)CC1`, “inactive”; for `COc1ccc(NC2CCN(CCc3ccccc3)CC2)c(OC)c1`, “inactive”.
